Yeast mating assay 1: variants of the scFv Ab-14

Data: MIT Lincoln Laboratory AlphaSeq set, Engelhart et al. 2022, doi:10.1038/s41597-022-01779-4, as distributed in FLAb.

Binding partner: SARS-CoV-2 spike HR2 peptide, sequence PDVDLGDISGINAS.

Each scFv is VH, a (GGGGS)3 linker, VL, as in the parent Ab-14, and differs from it in the CDRs of the heavy chain only.
VH: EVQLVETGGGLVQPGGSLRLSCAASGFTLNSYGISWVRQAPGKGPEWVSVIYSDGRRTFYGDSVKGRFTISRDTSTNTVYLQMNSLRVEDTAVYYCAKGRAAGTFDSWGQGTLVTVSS
VL: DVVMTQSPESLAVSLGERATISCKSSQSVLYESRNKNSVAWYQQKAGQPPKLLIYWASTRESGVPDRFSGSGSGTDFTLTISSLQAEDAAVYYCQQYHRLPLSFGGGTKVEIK

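The parent was found by panning a naive human phage display library on the peptide. AAYL49 was designed without a model: most single CDR substitutions and a random sample of double and triple ones. The scFvs were displayed on barcoded MATa yeast, the peptide on MATalpha yeast. The frequency of each diploid, read from paired DNA barcodes, reflects how well the two displayed proteins bind. Scores were corrected for input abundance and mapped to Kd with protein pairs of known affinity run in the same pool. The assay was run in three technical replicates.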

Substitutions are numbered in sequence along the VH above, starting at 1 (not Kabat). Numbers give log10(Kd / nM), so 0 is 1 nM and 3 is 1 µM. Smaller is tighter. Averages over replicates are reported, and they cover detected replicates only. An entry "ND" has no value in the source: the pair was not observed among the diploids in that replicate. This suggests poor binding but is not conclusive.

changes | log10 Kd, replicates | log10 Kd (nM), mean | empty controls
G26Q/G33E/Y60V | 3.24 2.08 2.02 | 2.45 | 3/9 (3.99)
I34E/I51K/F59S | ND ND ND | ND | 2/9 (4.05)
F59L/D62W/G103M | ND ND ND | ND | 0/9
G26L/F27G/D106W | 2.64 3.98 2.78 | 3.13 | 3/9 (3.72)
G33M/I51H/T58L | 4.72 5.45 ND | 5.09 | 5/9 (4.01)
R56H/K65V/F105T | ND ND ND | ND | 0/9
D54V/T58I/F59P | 4.51 5.23 4.43 | 4.72 | 5/9 (4.32)
I51H/A101E/F105R | ND ND ND | ND | 1/9 (3.99)
L29K/S35V/G103W | ND ND ND | ND | 2/9 (4.35)
S31P/T58Y | ND ND ND | ND | 0/9
G26C/D54E/G61E | ND ND ND | ND | 0/9
L29W/S31M/R56F | ND ND 4.77 | 4.77 | 3/9 (3.76)
V50M/T58G/T104K | 4.10 ND ND | 4.10 | 1/9 (3.60)
T28G/L29D/I34A | ND ND ND | ND | 0/9
Y52I/R100Q | ND ND ND | ND | 0/9
G26T/F59D/A102H | ND ND ND | ND | 1/9 (3.95)
S31G/I51C/R56D | 4.62 4.50 5.06 | 4.73 | 7/9 (4.44)
L29P/N30M/T58P | ND ND ND | ND | 0/9
R57G/R100H/G103P | ND ND 3.85 | 3.85 | 2/9 (3.75)
N30Q/G55K/S63G | 3.91 ND ND | 3.91 | 2/9 (3.65)
I34Q/Y60K/S63C | ND 4.69 ND | 4.69 | 2/9 (4.04)
G33S/G103R/S107L | ND 3.10 ND | 3.10 | 5/9 (4.50)
S31F/S53M/F59N | ND ND ND | ND | 0/9
F27A/G33V/D106F | ND ND ND | ND | 2/9 (4.26)
G26Q/G55M/R100N | ND ND ND | ND | 0/9
G33H/D54A/S107R | ND ND 3.89 | 3.89 | 2/9 (4.48)
T28Q/F59G | 0.71 0.88 0.85 | 0.81 | 2/9 (4.50)
R56Q/D106Q/S107A | 3.80 ND ND | 3.80 | 1/9 (3.01)
G55L/R57E/T104G | ND ND ND | ND | 1/9 (3.52)
I34L/G61V/G99F | ND ND ND | ND | 1/9 (3.46)
T28L/R57A | ND 3.39 5.20 | 4.30 | 4/9 (4.32)
Y32E/S35W/Y52M | ND 4.98 ND | 4.98 | 1/9 (3.94)
G55S/V64D/G99A | ND ND ND | ND | 2/9 (3.73)
S31P/S35P/T104E | 4.53 ND ND | 4.53 | 3/9 (3.67)
T28I/G55W/S63P | 3.29 4.66 ND | 3.98 | 3/9 (3.36)
Y52C/Y60P/R100I | ND ND ND | ND | 1/9 (3.98)
G26I/N30W/R56H | ND ND ND | ND | 4/9 (4.18)
R57S/F59G/G61Y | ND ND ND | ND | 0/9
Y60T/G99S/T104K | ND ND ND | ND | 0/9
D62L/K65W/F105R | ND ND ND | ND | 1/9 (3.45)
S35E/I51H/Y60D | ND ND ND | ND | 0/9
N30Q/Y32V/G61N | 4.55 3.59 4.21 | 4.12 | 8/9 (4.37)
R56T/D62F/S63L | ND ND ND | ND | 0/9
N30C/I51E/S107Y | ND 2.42 ND | 2.42 | 0/9
I34C/R57G/S107Y | ND 2.93 ND | 2.93 | 2/9 (4.18)
I34E/D62A/F105C | ND ND ND | ND | 1/9 (3.38)
S63Q | 0.63 1.04 1.05 | 0.91 | 0/9
S31N/R56A/F105S | ND ND ND | ND | 0/9
N30M/G99D/F105W | ND ND ND | ND | 0/9
F27K/Y60N/G103P | ND ND ND | ND | 0/9
K65G/T104S | ND 3.02 ND | 3.02 | 1/9 (3.83)
S35K/S53A/R57L | ND ND ND | ND | 0/9

Excerpt, the first 7 entries:

changes	log10 Kd, replicates	log10 Kd (nM), mean	empty controls
G26Q/G33E/Y60V	3.24 2.08 2.02	2.45	3/9 (3.99)
I34E/I51K/F59S	ND ND ND	ND	2/9 (4.05)
F59L/D62W/G103M	ND ND ND	ND	0/9
G26L/F27G/D106W	2.64 3.98 2.78	3.13	3/9 (3.72)
G33M/I51H/T58L	4.72 5.45 ND	5.09	5/9 (4.01)
R56H/K65V/F105T	ND ND ND	ND	0/9
D54V/T58I/F59P	4.51 5.23 4.43	4.72	5/9 (4.32)

Background: pairings of library AAYL49 with three empty control strains gave a value in 15% of cases (median 4.06, 5th percentile 2.83). Values in that range, when seen in few replicates, are hard to tell from nonspecific mating. Also given: how often the same scFv was detected with the empty control strains, with their mean in brackets.